The target of this assay is T1, E. coli glutamine synthetase (Escherichia coli, UniProt P0A9C5).
T1 construct: purchased Millipore-Sigma
T1 sequence (P0A9C5 2-469 limits assumed): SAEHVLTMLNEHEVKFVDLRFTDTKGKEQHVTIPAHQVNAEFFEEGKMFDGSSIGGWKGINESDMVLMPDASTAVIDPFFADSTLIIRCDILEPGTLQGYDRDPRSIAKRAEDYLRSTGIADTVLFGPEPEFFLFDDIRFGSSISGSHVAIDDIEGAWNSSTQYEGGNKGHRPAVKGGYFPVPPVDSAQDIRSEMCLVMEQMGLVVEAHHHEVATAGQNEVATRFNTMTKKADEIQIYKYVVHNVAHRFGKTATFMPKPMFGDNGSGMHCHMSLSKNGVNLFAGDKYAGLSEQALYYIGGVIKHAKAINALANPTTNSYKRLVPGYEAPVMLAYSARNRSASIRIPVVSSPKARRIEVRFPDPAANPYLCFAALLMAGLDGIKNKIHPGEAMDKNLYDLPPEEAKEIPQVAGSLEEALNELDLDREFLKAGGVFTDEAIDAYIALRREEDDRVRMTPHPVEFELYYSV
Description: Assay of Glutamine Synthetase (GS) Inhibition, coupled assay. The assay is classed as biochemical. The following applies: GS from E. coli, L-glutamate 5-50 mM, 0.5 or 2.0 μM AST, 37° C. On the procedure:
Assay of Glutamine Synthetase (GS) Inhibition. Inhibition of GS activity by bAST, sAST or D,L-AST was analyzed by a coupled assay using GS from E. coli (Millipore-Sigma), as described previously, with minor modifications. Briefly, the GS reaction was initiated by addition of L-glutamate (5, 10, 20 or 50 mM) to the reaction mixture (100 mM Tris-acetate (pH 8.6), 9 mM ATP, 1 mM phosphoenolpyruvate, 60 mM Mg2Cl, 19 mM KCl, 45 mM NH4Cl, 0.25 mM NADH, 13-20 units of L-lactic dehydrogenase, 8-14 units of pyruvate kinase and 1 unit of GS) and incubated at 37° C. in the absence or presence of 0.5 or 2.0 μM of bAST, sAST or D,L-AST, and the decrease in A340 nm was monitored to quantify oxidation of NADH to NAD^+ using an extinction coefficient 6230 M^−1cm^−1. Activities were corrected with the values from control assays without enzyme. The inhibition constant (Ki) for each AST was determined based on the apparent Km of GS using Sigma Plot (Systat Software, Inc., Sun Jose, Calif.).

Consider `C[As](=O)(O)CCC(N)C(=O)O` (centres unmarked) [bAST], for which the Ki (listed as L-bAST) was 300 ± 100 nM. With `C[As](=O)(O)CCC(N)C(=O)O` (centres unmarked) [sAST], affinity (listed as D/L-sAST) was put at a Ki of 650 ± 200 nM.

(Values after US11667658B2, “Chemical synthesis of the organoarsenical antibiotic arsinothricin” (The Florida International University Board of Trustees, priority 2021, dated 2023).)
